Measurements taken from PubChem BioAssay AID504411 (The Scripps Research Institute Molecular Screening Center, 2011).
This is a selection; strong and weak results do not stand in their true shares. The source made the active and inactive calls. Cut-off read from the data, not from the text of the source: active = inhibition above about 34%; inactive = the rest.

By UniProt entry, the sequences of proteins in these tests, tags left out. Where a name states a change or a piece, a line headed by the entry shows the natural chain unless it says otherwise.
UniProt Q8NCG7: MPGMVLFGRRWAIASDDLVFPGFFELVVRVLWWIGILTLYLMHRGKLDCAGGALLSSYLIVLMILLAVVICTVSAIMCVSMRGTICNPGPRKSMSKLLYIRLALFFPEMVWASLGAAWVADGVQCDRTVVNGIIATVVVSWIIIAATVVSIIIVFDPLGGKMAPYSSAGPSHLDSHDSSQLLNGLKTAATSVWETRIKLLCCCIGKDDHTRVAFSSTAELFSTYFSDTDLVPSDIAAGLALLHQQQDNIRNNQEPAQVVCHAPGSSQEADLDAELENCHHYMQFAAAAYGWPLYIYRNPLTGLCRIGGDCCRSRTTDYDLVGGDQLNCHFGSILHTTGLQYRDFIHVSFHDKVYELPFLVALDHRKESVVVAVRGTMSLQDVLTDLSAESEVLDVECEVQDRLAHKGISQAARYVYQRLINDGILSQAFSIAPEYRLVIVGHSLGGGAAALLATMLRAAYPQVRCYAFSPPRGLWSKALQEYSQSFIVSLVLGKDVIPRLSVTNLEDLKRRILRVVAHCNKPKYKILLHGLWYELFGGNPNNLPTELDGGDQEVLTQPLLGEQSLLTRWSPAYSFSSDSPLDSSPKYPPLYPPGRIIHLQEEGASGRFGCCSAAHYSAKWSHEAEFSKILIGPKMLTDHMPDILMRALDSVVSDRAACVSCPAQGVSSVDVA

Each molecule was assayed against Diacylglycerol lipase-beta (Homo sapiens) (UniProt Q8NCG7) (assay: DAGLB lipase inhibitors, primary screen, biochemical, fluorescence, HTS (AID 504411;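 note: 0% = enzyme with vehicle and 100% = wells lacking enzyme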)). Conditions: HEK293T DAGLB membrane lysate, EnzChek fluorogenic substrate; at 5.17 µM; active compounds read high.
For `O=P1(N(CCCl)CCCl)NCCC(C(F)(F)F)O1` (stereo not given), the inhibition was inactive: -0.95%. With `CC(C)(C)C(=O)NC(Sc1ncccn1)C(Cl)(Cl)Cl` (stereo not given) the inhibition was inactive: 3.54%. `Nc1cccc2c([As](=O)(O)O)cccc12` was tested, and the inhibition was inactive: -0.74%. `Cc1ccc(NCCc2c([N+](=O)[O-])cc([N+](=O)[O-])cc2[N+](=O)[O-])cc1` was tested, and the inhibition was inactive: 16.2%. With `CCCOP(=S)(Nc1nc(N)cc(=O)[nH]1)OCCC` the inhibition was inactive: -1.08%. For `COc1cc(C2NCCC3(OCCO3)C2(C)C)cc(OC)c1OC` (stereo not given), the inhibition was inactive: 0.77%. `CCOP(=O)(Nc1cccc2ccccc12)OCC` was tested, and the inhibition was inactive: -0.21%. With `O=C(OC1CN2CCC1CC2)c1ccc(Cl)cc1` (stereo not given) the inhibition was inactive: 0.23%. With `COc1cc(C(=O)NCC2(N3CCOCC3)CCCCC2)cc(Cl)c1OC(C)C` the inhibition was inactive: -6.03%. With `O=[As](O)(O)c1cccnc1` the inhibition was inactive: 0.82%. `CS(=O)(=O)c1ccc(Cl)c(NC(=O)COC(=O)C(O)(c2ccccc2)c2ccccc2)c1` was tested, and the inhibition was inactive: -3.5%. With `O=[As](O)(c1cccc(O)c1)c1cccc(O)c1` the inhibition was inactive: -1.22%. For `Cc1cccc(OCC(=O)OC2CN3CCC2CC3)c1` (stereo not given), the inhibition was inactive: 0.04%. For `NC(=O)Nc1ccc([As](=O)(O)O)cc1`, the inhibition was inactive: 0.17%. For `N#CCCN(C(=O)COC(=O)C(O)(c1ccccc1)c1ccccc1)c1ccc(F)cc1`, the inhibition was inactive: 0.83%. In the case of `CN(C(=O)Cc1ccccc1)[C@@H]1CC[C@]2(CCCO2)C[C@H]1N1CCCC1`, the inhibition is reported as inactive: 3.14%. `CCOP1(=S)c2c(C)nn(CCC#N)c2N=C(c2ccc(F)cc2)N1C` (stereo not given) was tested, and the inhibition was inactive: -0.95%. In the case of `CN(C)C(=O)c1cc([N+](=O)[O-])cc2c1-c1c(cc([N+](=O)[O-])cc1[N+](=O)[O-])C2=O`, the inhibition is reported as inactive: 2.39%. With `O=[N+]([O-])c1ccc2c(c1)nnn2O` the inhibition was inactive: 2.31%. In the case of `CN(C(=O)Cc1ccc(Cl)c(Cl)c1)[C@H]1CC[C@@]2(CCCO2)C[C@@H]1N1CCCC1`, the inhibition is reported as inactive: 1.38%. `CCOP1(=S)c2c(C)nn(CCC#N)c2N=C(c2ccccc2F)N1C` (stereo not given) was tested, and the inhibition was inactive: 0.6%. With `O=P(Nc1nccs1)(c1ccccc1)c1nc2ccccc2s1` (stereo not given) the inhibition was inactive: -1.84%. In the case of `O=P(Nc1nccs1)(Oc1ccccc1)Oc1ccccc1`, the inhibition is reported as inactive: -2.12%. With `CS(=O)(=O)c1cc([N+](=O)[O-])c2no[n+]([O-])c2c1` the inhibition was inactive: 2.4%. With `O=C(O)COc1ccc([As](=O)(O)O)cc1[N+](=O)[O-]` the inhibition was inactive: -0.14%. For `Nc1ccccc1[As](=O)(O)c1ccccc1`, the inhibition was inactive: -0.56%. `ClCCSc1nnc(-c2cccnc2)o1` was tested, and the inhibition was inactive: 0.9%. For `CC(C)c1ccc(OP(=O)(Nc2ccccn2)Oc2ccccc2F)cc1` (stereo not given), the inhibition was inactive: -2.23%. With `COC(=O)C1(C)COP(=O)(N2CCCCCC2)OC1` (stereo not given) the inhibition was inactive: -0.11%. With `O=C(OC1CN2CCC1CC2)c1cccc2[nH]cnc12` (stereo not given) the inhibition was inactive: -1.84%. In the case of `CCN(CC)C(=S)SC(NC=O)C(Cl)(Cl)Cl` (stereo not given), the inhibition is reported as inactive: 2.16%. `O=[N+]([O-])c1cc([N+](=O)[O-])c(-c2ccn[nH]2)s1` was tested, and the inhibition was inactive: 0.7%. With `O=[As](O)(c1ccc(O)cc1)c1ccccc1O` the inhibition was inactive: 4.1%. `C[As](=O)(O)c1cccc(C(=O)O)c1` was tested, and the inhibition was inactive: -2.58%. For `COc1cc(C(=O)NCC2(N3CCOCC3)CCCCC2)ccc1OCC(C)C`, the inhibition was inactive: -2.11%. `O=[N+]([O-])c1ccc(-c2cc([N+](=O)[O-])c(O)c([N+](=O)[O-])c2)cc1` was tested, and the inhibition was active: 34.8%. For `Cc1ccc(OP(=O)(Nc2ccc([N+](=O)[O-])cn2)Oc2ccc(C)cc2)cc1`, the inhibition was inactive: -1.81%. With `Cc1ccc2nc3c(c(C)c2c1)CC(C(Cl)Cl)S3` (stereo not given) the inhibition was inactive: -12.8%. With `O=[N+]([O-])c1cc(Oc2ccc([N+](=O)[O-])cc2C(F)(F)F)cc([N+](=O)[O-])c1` the inhibition was inactive: 1.59%. For `COc1ccc(N/C(=N/P(=O)(N2CCOCC2)N2CCOCC2)N2CCOCC2)cc1`, the inhibition was inactive: -1.21%. In the case of `Cc1c2c(nc3ccccc13)SC(C(Cl)Cl)C2` (stereo not given), the inhibition is reported as inactive: -5.47%. For `O=C(OC1CN2CCC1CC2)C12CC3CC(CC(C3)C1)C2` (stereo not given), the inhibition was inactive: 0.38%. `Cc1cc(=O)[nH]c(N[N+](=O)[O-])n1` was tested, and the inhibition was inactive: -2.85%. In the case of `O=P1(N(CCCl)CCCl)OCCCN1CCCl` (stereo not given), the inhibition is reported as inactive: 0.57%. For `O=P1(N(CCCl)CCCl)Nc2ccccc2N1`, the inhibition was inactive: -2.59%. `COc1ccc2nc(NP(=O)(c3ccccc3)c3ccccc3)sc2c1` was tested, and the inhibition was inactive: -2.17%. With `COc1cc(I)ccc1[As](=O)(O)O` the inhibition was inactive: 2.32%. For `O=C(OC1CN2CCC1CC2)c1cccc([N+](=O)[O-])c1` (stereo not given), the inhibition was inactive: -0.19%. For `CSc1ccc(Nc2c([N+](=O)[O-])cc([N+](=O)[O-])cc2[N+](=O)[O-])cc1`, the inhibition was inactive: 26.3%. In the case of `CCOC(=O)c1ccc(NC(=O)C(C)(CCl)SC)cc1` (stereo not given), the inhibition is reported as inactive: -2.36%. For `CCC(C)N(CC(C)C)C(=S)SC(NC(C)=O)C(Cl)(Cl)Cl` (stereo not given), the inhibition was inactive: 0.12%. In the case of `COP1(=S)c2c(C)nn(CCC#N)c2N=C(c2ccc(F)cc2)N1C` (stereo not given), the inhibition is reported as inactive: -1.43%. `O=C(O)C(=O)c1ccc(N(CCCl)CCCl)cc1` was tested, and the inhibition was inactive: -1.78%. For `O=C(COc1ccccc1)OC1CN2CCC1CC2` (stereo not given), the inhibition was inactive: -1.86%. For `O=C(Nc1ccncc1[N+](=O)[O-])c1ccc([N+](=O)[O-])cc1[N+](=O)[O-]`, the inhibition was inactive: -0.59%. With `CCOC(=O)Nc1cccc([As](=O)(O)O)c1` the inhibition was inactive: -6.74%. `Cc1cc(SC(NC=O)C(Cl)(Cl)Cl)ncn1` (stereo not given) was tested, and the inhibition was inactive: -6.03%. In the case of `O=P(Nc1ccccn1)(c1cccc2ccccc12)c1cccc2ccccc12`, the inhibition is reported as inactive: 0.47%. `O=[N+]([O-])c1ccc(Nc2ccc(Oc3ccc([N+](=O)[O-])cc3[N+](=O)[O-])cc2)c([N+](=O)[O-])c1` was tested, and the inhibition was inactive: -3.86%. `O=C(O)C(O)c1ccc(N(CCCl)CCCl)cc1` (stereo not given) was tested, and the inhibition was inactive: -3.64%. For `CCOC(=O)Nc1ccc([As](=O)(O)O)c(O)c1`, the inhibition was inactive: -1.76%. `CC1CCNP(=O)(N(CCCl)CCCl)O1` (stereo not given) was tested, and the inhibition was inactive: -4.27%. With `COP(=O)(OC)N1CC1c1ccccc1` (stereo not given) the inhibition was inactive: 0.29%. With `CCCCOc1ccc(C(=O)NCC2(N3CCCCC3)CCCCC2)cc1OC` the inhibition was inactive: 2.16%. In the case of `Cc1cc(SC(NC(=O)c2ccccc2)C(Cl)(Cl)Cl)nc(C(C)C)n1` (stereo not given), the inhibition is reported as inactive: -3.22%.
